From US6359134B1

Sequences of proteins named here, by UniProt entry; tags and fusion partners are left off. Residues count along the entry.
UniProt P00742, 235-488 limits assumed: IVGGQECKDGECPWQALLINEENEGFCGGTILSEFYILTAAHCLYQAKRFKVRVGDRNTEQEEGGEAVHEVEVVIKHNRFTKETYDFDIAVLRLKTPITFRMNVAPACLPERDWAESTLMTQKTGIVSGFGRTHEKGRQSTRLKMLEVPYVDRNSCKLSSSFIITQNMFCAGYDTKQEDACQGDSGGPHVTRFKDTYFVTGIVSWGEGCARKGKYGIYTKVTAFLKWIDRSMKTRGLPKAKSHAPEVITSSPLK
UniProt P00742, 41-179 partner limits assumed: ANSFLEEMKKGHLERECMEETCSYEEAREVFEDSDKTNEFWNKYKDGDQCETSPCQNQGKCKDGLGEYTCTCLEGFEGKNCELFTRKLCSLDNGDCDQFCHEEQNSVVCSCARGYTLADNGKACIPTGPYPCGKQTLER

Biological target: human FXa (Homo sapiens, UniProt P00742)
Assay: Inhibitory effect on human activated coagulation factor X (FXa)
Settings: human FXa (0.3 unit/ml), substrate S-2765, 37° C., absorbance at 405 nm
Method: Inhibitory effect on human activated coagulation factor X (FXa)
In 0.05M Tris buffer solution (pH 8.3) 225 μl containing 0.145 M sodium chloride and 2 mM calcium chloride, test compound dissolved in dimethyl-sulfoxide 5 μl and human FXa (0.3 unit/ml) 10 μl were reacted at 37° C. for 10 minutes. To the reaction solution was added substrate (3 mM, S-2765) 10 μl and the mixture was further reacted at 37° C. for 10 minutes. To the reaction solution was added 50% acetic acid aqueous solution 25 μl to stop the reaction.
IC50 values (concentration of the test compound which inhibits 50% of FXa activity) were calculated by measuring change of absorbance at 405 nm with microplate reader (MTP-32, Corona Electric).

For `Cc1nc(-c2ccncc2)sc1C(=O)N1CCN(S(=O)(=O)c2ccc3cc(Cl)ccc3c2)CC1`, which IC50 is on record?
Its IC50 is 19 nM.
